The target in this assay is Klenow fragment not having exonuclease activity (KF exo−) (Escherichia coli, UniProt P00582, D355A/E357A). The following applies: primer 5′-[…]; for Km / Vmax: 37° C., SD in parentheses.

The source of these data is patent US9285319B2, “Nucleic acid base analogs with quenching and fluorescent activities and applications thereof” (RIKEN, priority 2010, dated 2016).

Each structure is given as a SMILES string. Like-named read-outs stand apart in the source and are kept apart here.

With `O=P(O)(O)OP(=O)(O)OP(=O)(O)OC[C@H]1O[C@@H](n2cnc3c(-c4ccc(-c5cccs5)s4)ccnc32)C[C@@H]1O`, the “Efficiency (Vmax/KM)” value runs as follows: (template N = A) 1.5 × 10^5 % min^−1 M^−1; (template N = C) 1.3 × 10^5 % min^−1 M^−1; (template N = G) 2.6 × 10^5 % min^−1 M^−1; (template N = Pn) 1.2 × 10^7 % min^−1 M^−1; (template N = T) 3.5 × 10^5 % min^−1 M^−1. For the same compound, the Km – broadly, the concentration of substrate that gives half-maximal velocity – by setting is: (template N = A) 5 µM; (template N = C) 7.5 µM; (template N = G) 3.6 µM; (template N = Pn) 0.77 µM; (template N = T) 6.2 µM. For the same compound, the Vmax by setting is: (template N = A) 0.73 (0.1) % min^−1; (template N = C) 1.0 (0.2) % min^−1; (template N = G) 0.93 (0.03) % min^−1; (template N = Pn) 8.9 (3.0) % min^−1; (template N = T) 2.2 (0.2) % min^−1.
